## Apparent affinities of Ab-14 variants for a coronavirus HR2 peptide

Values reported by Engelhart et al. 2022, doi:10.1038/s41597-022-01779-4 (FLAb copy).

Binding partner: SARS-CoV-2 spike HR2 peptide, sequence PDVDLGDISGINAS.

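Phage display of a naive human antibody library on the peptide gave the parent. The library (AAYL50) carries one to three amino acid substitutions per variant, with no insertions or deletions. The scFvs were displayed on barcoded MATa yeast, the peptide on MATalpha yeast. The frequency of each diploid, read from paired DNA barcodes, reflects how well the two displayed proteins bind. Each replicate has its own calibration line, from reference interactions of the BCL2 family. Each pool was mated in three replicate cultures.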

Parent: Ab-14, a human scFv built as VH, a (GGGGS)3 linker, VL. Only the CDRs of the light chain vary.
VH: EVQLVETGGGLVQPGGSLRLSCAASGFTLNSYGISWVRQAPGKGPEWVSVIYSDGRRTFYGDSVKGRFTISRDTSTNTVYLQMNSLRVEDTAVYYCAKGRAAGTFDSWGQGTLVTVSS
VL: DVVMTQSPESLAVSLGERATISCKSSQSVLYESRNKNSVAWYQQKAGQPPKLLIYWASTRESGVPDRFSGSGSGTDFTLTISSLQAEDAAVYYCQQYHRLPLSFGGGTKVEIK

Variants are written as CDR1, CDR2 and CDR3 of the light chain (limits as in the source). Parent: KSSQSVLYESRNKNSVA, WASTRES, QQYHRLPLS. Numbers give log10(Kd / nM), so 0 is 1 nM and 3 is 1 µM. Smaller is tighter. "n.d." means that the variant was in the library but no mating with the target was seen in that replicate; the authors take this as a sign of poor binding, and no number exists. Background: pairings of library AAYL50 with three empty control strains gave a value in 18% of cases (median 4.19, 5th percentile 2.99). Values in that range, when seen in few replicates, are hard to tell from nonspecific mating. Also given: how often the same scFv was detected with the empty control strains, with their mean in brackets.

| # | CDR-L1 | CDR-L2 | CDR-L3 | replicates, log10 nM | signal with controls |
|---|---|---|---|---|---|
| 1 | KSSQSVLYESRNKNSNL | WASTRES | QQYHKLPLS | n.d. n.d. n.d. | 0/9 |
| 2 | KSSQSVLYESRNKNSVA | WASTRCS | RQYHREPLS | 0.62 0.83 0.81 | 1/9 (3.84) |
| 3 | KSSQDVLYMSRNKISVA | WASTRES | QQYHRLPLS | n.d. 2.99 2.69 | 2/9 (3.04) |
| 4 | RSSQSVLYESRNKWSLA | WASTRES | QQYHRLPLS | 1.96 1.91 2.30 | 5/9 (4.24) |
| 5 | KSSQSVLIESRNKNSVA | KPSTRES | QQYHRLPLS | n.d. n.d. n.d. | 2/9 (3.20) |
| 6 | KSSQSVLYELRQKNSVA | WASNRES | QQYHRLPLS | 2.46 1.92 1.82 | 2/9 (4.05) |
| 7 | KSSQSVLYESRNENVVA | WASTREL | QQYHRLPLS | n.d. n.d. n.d. | 0/9 |
| 8 | KSSQSVLYESRTKNSAA | WASTRCS | QQYHRLPLS | 6.21 4.27 6.10 | 3/9 (3.88) |
| 9 | KSSQSVVYESRNKNSVA | WMSTRES | LQYHRLPLS | n.d. 4.94 n.d. | 1/9 (3.43) |
| 10 | KSSQSVLYESRNKNSVA | WASTKES | QWYHRLPLS | n.d. 3.58 n.d. | 1/9 (4.27) |
| 11 | KSSQSVLYESRNKNSVA | WASHRES | QQWHRLFLS | n.d. n.d. n.d. | 0/9 |
| 12 | KSSQSVLYEHRNKNSVA | WASSRES | QQYHRLPLS | 3.31 4.06 n.d. | 1/9 (4.78) |
| 13 | KSSQSVLYESINKNSVA | WASWRES | QQYHRLCLS | n.d. n.d. n.d. | 0/9 |
| 14 | KSSQSVLYDSRNKNSVA | EDSTRES | QQYHRLPLS | -0.08 0.36 0.17 | 0/9 |
| 15 | KSSQSVYYWSRNKNSVA | WASTRES | QQNHRLPLS | 3.26 2.53 2.70 | 4/9 (3.92) |
| 16 | KSSQSNLYESRNKNSVA | WASTRKS | QQYHDLPLS | 3.81 2.62 3.08 | 1/9 (3.45) |
| 17 | KSSQSPLYESRNKNSVA | WASTRES | QQYPRLTLS | n.d. 3.21 n.d. | 0/9 |
| 18 | KSSQSVLYESRNKNSVA | WASMRES | QQYHNLPLS | 0.97 1.19 1.09 | 0/9 |
| 19 | KSSQSVLYESRNKNSVA | WASTCVS | QQYHRLYLS | n.d. 3.69 n.d. | 0/9 |
| 20 | KSSLMVLYESRNKNSVA | WASTRES | QQYHRPPLS | 4.83 n.d. 4.27 | 1/9 (2.96) |
| 21 | KSSQSVLYESRNKNSNK | WASTRES | QQYHRLPLS | n.d. 3.42 4.59 | 3/9 (4.38) |
| 22 | KSSGSVLYESRNKWSVA | WASTRES | QQRHRLPLS | n.d. 4.08 n.d. | 0/9 |
| 23 | KDSQSVLYESCNKNSVA | WALTRES | QQYHRLPLS | n.d. 4.48 4.10 | 2/9 (3.95) |
| 24 | KDSQSVLYESRNKNSVA | WASTRET | QQYHGLPLS | 3.28 2.66 3.18 | 3/9 (3.70) |
| 25 | KSSQSVLYEMRNKNSVA | WASTRES | QAYHRLPLH | 1.49 1.51 1.47 | 3/9 (4.63) |
| 26 | KSSQSVYYEPRNKNSVA | WAETRES | QQYHRLPLS | 0.78 0.93 0.88 | 1/9 (4.92) |
| 27 | KSSQSVLYESRNKNSVA | WASTREC | QQPVRLPLS | n.d. n.d. n.d. | 0/9 |
| 28 | KSSRAVLYESRNKNSVA | WASTRES | QQYHRLHLS | n.d. 5.33 4.49 | 5/9 (5.29) |
| 29 | KSSQSVLYESMNKNSVT | WASTRES | QQYHRLPLF | n.d. n.d. n.d. | 0/9 |
| 30 | KSSYSVLYEYRKKNSVA | WASTRES | QQYHRLPLS | n.d. 4.56 n.d. | 1/9 (4.22) |
| 31 | KSSSSVLYESMQKNSVA | WASTRES | QQYHRLPLS | 0.60 0.79 0.73 | 1/9 (3.98) |